In ChEMBL document CHEMBL6127063, “N-substituted-4-(pyridin-4-ylalkyl)piperazine-1-carboxamides and related compounds as Leishmania CYP51 and CYP5122A1 inhibitors” (Bioorg Med Chem, 2024):

Assay: Inhibition of full length his-tagged recombinant Leishmania donovani CYP51-32c

IC50: > 100 µM
Structure (SMILES): COc1ccc(CCN2CCN(C(=O)Nc3ccc(OCc4cc(C(F)(F)F)cc(C(F)(F)F)c4)cc3)CC2)cc1
